The values that follow come from ChEMBL document CHEMBL2331117 (J Med Chem, 2013).

This experiment is filed under the species Homo sapiens. As to the kind of experiment: Selectivity ratio of IC50 for PI3Kalpha (unknown origin) to IC50 for mTOR (unknown origin).

Each structure is given as a SMILES string.

With `Cc1c(C(=O)N2CCOc3ccc(-c4ccc5nc[nH]c5c4)cc3C2)ccc(S(C)(=O)=O)c1F`, the Ratio IC50 is more than 1000.

Regarding `Cc1nc2ccc(-c3ccc4c(c3)CN(C(=O)c3ccc(C(=O)C(F)(F)F)cc3)CCO4)cc2[nH]1`, the Ratio IC50 was more than 100.

Turning to `CCc1c(C(=O)N2CCOc3ccc(-c4ccc5nc[nH]c5c4)cc3C2)ccc(S(C)(=O)=O)c1F`, the Ratio IC50 is more than 1000.
